## Ab-14 light chain CDR variants: yeast mating affinities

All variants were tested on one target, the spike HR2 peptide PDVDLGDISGINAS (SARS-CoV-2).

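The parent was found by panning a naive human phage display library on the peptide. This is the validation round: designs drawn from the data on random variants, tested in the same kind of assay. Several design methods are mixed in this list. In AlphaSeq, yeast of one mating type display the scFv and yeast of the other type display the target. After mating in shaken culture at 30 °C for 16 h, diploids were selected and their barcode pairs sequenced. Each replicate has its own calibration line, from reference interactions of the BCL2 family. Each pool was mated in six replicate cultures.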

Parent scFv Ab-14: VH joined to VL by three GGGGS repeats. Changes lie in the light chain CDRs alone.
VH: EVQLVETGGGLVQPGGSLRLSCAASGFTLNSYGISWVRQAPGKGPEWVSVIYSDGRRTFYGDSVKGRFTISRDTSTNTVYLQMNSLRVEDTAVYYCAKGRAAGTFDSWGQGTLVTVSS
VL: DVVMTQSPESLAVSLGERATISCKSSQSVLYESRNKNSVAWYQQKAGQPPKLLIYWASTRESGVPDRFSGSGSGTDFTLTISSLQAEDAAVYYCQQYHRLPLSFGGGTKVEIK

The parent's light chain CDRs are KSSQSVLYESRNKNSVA, WASTRES, QQYHRLPLS; each variant's own CDRs replace them letter for letter. Scale: log10 of Kd in nM, estimated from mating counts; low values are strong binders. Averages over replicates are reported, and they cover detected replicates only. Where no diploid with the target was found in any replicate, the entry reads "not detected": below detection, most likely a poor binder, though not proof of it. The authors' rule: three or more of the six replicates give a measured affinity, fewer mean a poor binder. Some sequences occur more than once in the pool; their replicates are pooled. Of ten entries with the parent sequence, four were seen in most replicates (averages 0.34 to 2.37), three in one and three in none, so single entries are noisy. Values of this round are not directly comparable with the first-round values of the same sequences. Empty control strains, which show no peptide, gave a signal in 4% of pairings with all light chain designs; the median was 2.64 and 95% of these signals were weaker than 1.59. No background was subtracted.

| CDR-L1 | CDR-L2 | CDR-L3 | log10 Kd (nM), mean | seen in |
|---|---|---|---|---|
| TISQSWFIEQRNKNNVA | EMTTREN | QDYDRLPLS | 0.61 | 5/6 |
| KLSQSVGGESRNKNSVA | EASTREQ | QDYHRLPLS | -0.11 | 6/6 |
| YLSQSVLYESRNKNSVA | NASQRES | QQYHRLPLS | -0.09 | 6/6 |
| SLMQSQLYESRNKNSVA | HASLRED | QQYHRLPLS | -0.08 | 6/6 |
| KSSQSFLYESRNKNSVA | GASTRES | QQGHRLTLS | 0.18 | 6/6 |
| KSSQSVLYESRNKNSVA | SASTRES | QQYHRLELL | 1.15 | 6/6 |
| KSSQSSTYESRNKNSVA | WSSTRES | QQYMRLPLS | 2.13 | 4/6 |
| KQSQSVLFQSRNKNSVA | DASTRES | QQYHRLPLS | -0.41 | 6/6 |
| KLSQSVLYESRMKNSVA | NASTRFS | QQYHRLPLS | 0.20 | 6/6 |
| KLSQSVLYESRNKNSVA | GASQRES | QDYHRLPLS | -0.14 | 6/6 |
| RVQQWSGHSDMTWKSIA | SASLRAQ | QQYARLPLE | 1.04 | 6/6 |
| KLMGSSLYESRNKNSVA | NASTREV | QQYHRLPLS | -0.23 | 6/6 |
| KISQMVNFESTHVNAVA | QMSTREE | QQYFRLPLS | 0.95 | 6/6 |
| KSSISYLRESRNKNSVA | EASTRES | QQYHRLPLS | -0.17 | 6/6 |
| NLPMKELGMSWNVNNVA | DSEQRMK | QQYSRLPLM | 0.27 | 6/6 |
| HVESAMVESNAHKKNVA | NGQGRVE | QQYGRLPLQ | 1.10 | 6/6 |
| KLQNSMLYESRNDNSVA | DASKRES | QQYHRLPLS | 0.16 | 6/6 |
| HMSMLTLSGMRHTNSVA | QMTTREN | QQYDRLPLA | 0.15 | 6/6 |
| QYSENLTIYDQEQGNVA | HGEMRTE | QQYHKLPLS | 0.99 | 6/6 |
| TISMFMDNLSRNRNNVA | DTSTLGS | QSYDRLPLS | 1.04 | 6/6 |
| KISQSVWMESCNVNNVA | NASTRED | QQYHRLPLS | 0.59 | 6/6 |
| KISHNFLIESRNLNSVA | EMTTREY | QSYDRLPLS | 2.22 | 4/6 |
| KLSQSVWYESRNKNSVA | NASQRES | QQYHRLPLS | 0.09 | 6/6 |
| KLSQGTYGLTGHASNVA | HDEMRWE | QQYHKLPLI | 2.96 | 1/6 |
| MISQLYNMGQFAINSVA | QAETRCN | QQYFRLPLE | 1.57 | 6/6 |
| KLSQSGLYEMRNKMSVA | QASQRES | QQYHRLPLS | 0.06 | 6/6 |
| KSLQSVLYESRNKNNVA | HASTRED | QQYHRLPLS | 0.09 | 6/6 |
| KLSWKSLYGETRWSAIA | NTKVRNA | QQYFRLPLQ | 0.78 | 6/6 |
| KISQSVAYESRNRNMVA | AASTRES | QQYHRLPLS | 1.07 | 6/6 |
| KIGMTLNQLYEKANNVA | DLVERVN | QQYHRLPLS | 0.23 | 6/6 |
| KSQQSVLYESRNKNNVA | NASTRED | QQYHRLPLS | -0.61 | 6/6 |
| ALSDWEWYGEENINRIA | DRSALEW | QQYGRLPLS | 1.04 | 6/6 |
| KLSQSWEYESRNKNSVA | NASTRES | QQYHRLPLS | -0.02 | 6/6 |
| QLAVDRLMEYTMGDAIA | GKTLRVD | QQYARLPLS | 0.13 | 6/6 |
| KMSMSVLYEDRHGNSVA | NASTRFM | QQYHRLPLS | 0.93 | 6/6 |
| KPSQSVSDESRNKNSVA | SASTRVE | QQYHRLPLS | 0.32 | 6/6 |
| KVQQSVLYQSRNKNSVA | EASTRES | QQYHRLPLS | -0.10 | 6/6 |
| RIDSVWEQLTNRAQNVA | NATTVIA | QQYMRLPLV | 1.19 | 6/6 |
| MVNNIMDHLSKQTNNVA | ETVTREE | QQYERLPLS | 0.94 | 6/6 |
| KSSQSKLYESGNKNSVA | QASTRES | QQYHRLPLS | 2.58 | 3/6 |
| KFPQSQLYESRNKNSVA | NASTRES | QQYHRLPLS | -0.45 | 6/6 |
| NMNVGANFGKEQEQAIA | DVEDRES | QQYQRLPLT | 1.74 | 6/6 |
| VMQMQNDRMQDAAKNIA | GVDMRET | QQYFRLPFM | 0.26 | 6/6 |
| HLGDTVMQGSYYRNSVA | QESTRAD | QQYHHLPLS | 0.19 | 6/6 |
| KSSQSMLYESDNKNSVA | WAGTREA | QQYMRLPLS | 2.05 | 5/6 |
| KFSQSVLYESRNKNSVA | NASTRES | QQYHRLPLS | -0.09 | 12/12 |
| KMAQSNPYESRNKNSVA | NASYREM | QQYHRLPLS | -0.13 | 6/6 |
| HLSAMSLTETVKSRNVA | ENSTREQ | QQYDRLPLA | not detected | 0/6 |
| HYENISEPMGRYDQNIA | NVSLREH | QQYFMLPLS | 0.28 | 6/6 |
| MISQVLNTLTKTGNNVA | DLTEREV | QQYFRLPLS | 0.87 | 6/6 |
| KISFQYRYEQLEKNSIA | EVQTRLK | QQYHRLPLS | 1.22 | 6/6 |
| KSSQSVLYESRNKNSVA | SASTRSS | QQYHRLPLS | 1.16 | 6/6 |
| KSSQSALYESRNKNSVA | WASTRES | QQHNRLPLS | not detected | 0/6 |
| KQSQSEGGESRNMNSVA | HASQRES | QQYHRLPLS | 0.02 | 6/6 |
| KLSTITGHMRMAKDNVA | EMVTREK | QQYNRLPLS | 0.48 | 6/6 |
| KFSQSDLYESRNKNSVA | EASTRCS | QQYHRLPLS | -0.15 | 6/6 |
| TISQSFNMENQFKNSVA | QASTRES | QCYDRLPLS | 0.03 | 6/6 |
| KMSQSDLMEMRNMNSVA | NASTREM | QQYHRLPLS | 1.33 | 6/6 |
| KSEGGELYESRNKNSVA | NASMRES | QQYHRLPLS | -0.19 | 6/6 |
| ILSQMLLTAGNKHNSVA | QANNREE | QQYHRLPLS | 1.07 | 6/6 |
| SLYEITQELSGKKHSVA | DNSTRGE | QQYFRLPLE | 0.92 | 6/6 |
| KSSISYLYESQNTNSVA | EASTRES | QQYHRLPLS | 0.51 | 6/6 |
| KVSQSLGYESRNTNSVA | WASTRES | QQYHRLPLS | 1.38 | 6/6 |
| KSSQSELSESRNKNSVA | DASTRES | QQYWRLPLS | -0.18 | 6/6 |
| KLSQLWLYESRNKNSVA | QASTRES | QQYHRLPLS | 0.36 | 6/6 |
| MISQLMNTGQFAINSVA | QASERSN | QQYDRLPLI | 2.05 | 6/6 |
| KISMITGHMSVSKNRVA | EMETREN | QQYDRLPLS | 1.63 | 6/6 |
| KSSQSVLYELINKNSVA | WASTRNS | TQYHRLPLS | 3.11 | 1/6 |
| RLTEHQYMRADANHAVA | DASTRND | QQYHRLPLW | -0.23 | 6/6 |
| KSSQSVLDEGTNKNSVA | WASTRED | QQYHRLPLS | 0.81 | 6/6 |
| VLQQSVLPESRNKNSVA | SASTRLS | QQYHRLPLS | 0.45 | 6/6 |
| KSSQSVLYETSNKNSVA | WASTRES | QQYHRLPLS | 1.85 | 6/6 |
| QLLMATMQGTYNRNSVA | HAQTRND | QSYHRLPLS | 2.21 | 5/6 |
| KSSQSVLYESRNKNSVA | WASTRES | VQYFRLPFS | not detected | 0/6 |

Extract of 11 entries:

{"CDR-L1": "KISQMVNFESTHVNAVA", "CDR-L2": "QMSTREE", "CDR-L3": "QQYFRLPLS", "log10 Kd (nM), mean": "0.95", "seen in": "6/6"}
{"CDR-L1": "TISQSFNMENQFKNSVA", "CDR-L2": "QASTRES", "CDR-L3": "QCYDRLPLS", "log10 Kd (nM), mean": "0.03", "seen in": "6/6"}
{"CDR-L1": "KPSQSVSDESRNKNSVA", "CDR-L2": "SASTRVE", "CDR-L3": "QQYHRLPLS", "log10 Kd (nM), mean": "0.32", "seen in": "6/6"}
{"CDR-L1": "KQSQSEGGESRNMNSVA", "CDR-L2": "HASQRES", "CDR-L3": "QQYHRLPLS", "log10 Kd (nM), mean": "0.02", "seen in": "6/6"}
{"CDR-L1": "HLSAMSLTETVKSRNVA", "CDR-L2": "ENSTREQ", "CDR-L3": "QQYDRLPLA", "log10 Kd (nM), mean": "not detected", "seen in": "0/6"}
{"CDR-L1": "TISQSWFIEQRNKNNVA", "CDR-L2": "EMTTREN", "CDR-L3": "QDYDRLPLS", "log10 Kd (nM), mean": "0.61", "seen in": "5/6"}
{"CDR-L1": "QLAVDRLMEYTMGDAIA", "CDR-L2": "GKTLRVD", "CDR-L3": "QQYARLPLS", "log10 Kd (nM), mean": "0.13", "seen in": "6/6"}
{"CDR-L1": "KSSQSFLYESRNKNSVA", "CDR-L2": "GASTRES", "CDR-L3": "QQGHRLTLS", "log10 Kd (nM), mean": "0.18", "seen in": "6/6"}
{"CDR-L1": "KLSTITGHMRMAKDNVA", "CDR-L2": "EMVTREK", "CDR-L3": "QQYNRLPLS", "log10 Kd (nM), mean": "0.48", "seen in": "6/6"}
{"CDR-L1": "KSSQSVLDEGTNKNSVA", "CDR-L2": "WASTRED", "CDR-L3": "QQYHRLPLS", "log10 Kd (nM), mean": "0.81", "seen in": "6/6"}
{"CDR-L1": "SLYEITQELSGKKHSVA", "CDR-L2": "DNSTRGE", "CDR-L3": "QQYFRLPLE", "log10 Kd (nM), mean": "0.92", "seen in": "6/6"}

Source: Li et al. 2023 (doi:10.1038/s41467-023-39022-2), MIT Lincoln Laboratory and A-Alpha Bio; data file from the FLAb repository.